The source made the active and inactive calls. The rule behind the calls is not given here.
Columns and labels:
[1] = Drug metabolism in guinea pig lung assessed as (2S)-2-hydroxy-2-[3-[3-[[4-[[[(2R)-2-hydroxy-2-(8-hydroxy-2-oxo-1H-quinolin-5-yl)ethyl]amino]methyl]benzoyl]amino]propoxy]phenyl]-2-phenyl-acetic acid metabolite formation at 3 nmol/kg, IT(Intratracheal) administered as dry powder; type: ADME, tissue-based, Cavia porcellus; conditions: in vivo, inhaled_or_intranasal
Cavia porcellus [2] = test: (§1) Bronchodilating effect in acetylcholine induced male albino Dunkin-Hartley guinea pig model assessed as prevention of bronchospasm at 3 nmol/kg, preadministered with compound as dry powder followed by acetylcholine addition at 5 to 30 mins and measured upto 24 hrs post compound treatment; type: functional, organism-based
Cavia porcellus [3] = test: Bronchodilating effect in acetylcholine induced male albino Dunkin-Hartley guinea pig model assessed as prevention of bronchospasm preadministered with compound as dry powder followed by acetylcholine addition at 5 to 30 mins and measured 1 hrs post compound treatment; type: functional, organism-based; conditions: dose 0.3-3 nmol/kg
Cavia porcellus [4] = test: as §1, with “mins in presence of ICI-118551” for “mins”; type: functional, organism-based
Cavia porcellus [5] = test: Bronchodilating effect in acetylcholine induced male albino Dunkin-Hartley guinea pig model assessed as prevention of bronchospasm preadministered with compound as dry powder followed by acetylcholine addition at 5 to 30 mins in presence of ICI-118551 and measured 1 hrs post compound treatment; type: functional, organism-based; conditions: dose 0.3-3 nmol/kg
Cavia porcellus [6] = test: Bronchodilating effect in histamine-induced male albino Dunkin-Hartley guinea pig model preadministered intratracheally with compound followed by histamine addition at 5 to 30 mins and measured 1 hrs post compound treatment; type: functional, organism-based; conditions: dose 0.03-0.3 nmol/kg, route it(Intratracheal)
Cavia porcellus [7] = test: Bronchodilating effect in acetylcholine induced male albino Dunkin-Hartley guinea pig model preadministered intratracheally with compound followed by acetylcholine addition at 5 to 30 mins in presence of ICI-118551 and measured 1 hrs post compound treatment; type: functional, organism-based; conditions: dose 0.03-0.3 nmol/kg, route it(Intratracheal)
Cavia porcellus [8] = test: Bronchodilating effect in acetylcholine induced male albino Dunkin-Hartley guinea pig model preadministered intratracheally with compound followed by acetylcholine addition at 5 to 30 mins and measured 1 hrs post compound treatment; type: functional, organism-based; conditions: dose 0.03-0.3 nmol/kg, route it(Intratracheal)
Cavia porcellus [9] = test: Bronchodilating effect in histamine induced male albino Dunkin-Hartley guinea pig model assessed as prevention of bronchospasm at 3 nmol/kg, preadministered with compound as dry powder followed by histamine addition at 5 to 30 mins and measured upto 24 hrs post compound treatment; type: functional, organism-based
Cavia porcellus [10] = test: Bronchodilating effect in histamine induced male albino Dunkin-Hartley guinea pig model assessed as prevention of bronchospasm preadministered with compound as dry powder followed by histamine addition at 5 to 30 mins and measured 1 hrs post compound treatment; type: functional, organism-based; conditions: dose 0.3-3 nmol/kg

| Structure (SMILES) | Drug metabolism [1] | Activity (Cavia porcellus [2]) | Activity (Cavia porcellus [3]) | Activity (Cavia porcellus [4]) | Activity (Cavia porcellus [5]) | Activity (Cavia porcellus [6]) | Activity (Cavia porcellus [7]) | Activity (Cavia porcellus [8]) | Activity (Cavia porcellus [9]) | Activity (Cavia porcellus [10]) |
| --- | --- | --- | --- | --- | --- | --- | --- | --- | --- | --- |
| O=C(NCCCOc1cccc([C@](O)(C(=O)O)c2ccccc2)c1)c1ccc(CNC[C@H](O)c2ccc(O)c3[nH]c(=O)ccc23)cc1 | Metabolite_Notdetected | – | – | – | – | – | – | – | – | – |
| CN1CCC[C@@H](OC(=O)[C@](O)(c2ccccc2)c2cccc(OCCCNC(=O)c3ccc(CNC[C@H](O)c4ccc(O)c5[nH]c(=O)ccc45)cc3)c2)C1 | – | Active | Dose-Dependent Effect | Active | Dose-Dependent Effect | Dose-Dependent Effect | Dose-Dependent Effect | Dose-Dependent Effect | Active | Dose-Dependent Effect |
